{"source": "ChEMBL document CHEMBL1147690", "about": "“A cassette-dosing approach for improvement of oral bioavailability of dual TACE/MMP inhibitors” (Bioorg Med Chem Lett, 2006)", "molecular_target": "Collagenase 3 (Homo sapiens, UniProt P45452)", "test": "Binding affinity to recombinant MMP13", "note": "pKi: −log10 of the molar value."}
{"smiles": "CN1C(=O)N(C[C@H](C(=O)NO)[C@@H](CC2CCCC2)C(=O)N2CCCCC2)C(=O)C1(C)C", "values": [{"measurement": "pKi", "result": 9.00}]}
